{"source": "the OPERA property sets (Mansouri et al. 2018)"}
{"smiles": "CC(C)O[N+](=O)[O-]", "values": [{"measurement": "log10 OH rate constant (cm³/molecule/s)", "value": -12.3}]}
